Tested on: hESC
Assay: aggregate formation from hESC cultured on Matrigel after BMP pre-differentiation
Type: cell-based, human
Conditions: 25 ng/mL BMP2 pre-differentiation, control population did not form aggregates
Protocol: • 1. […] The applicants have determined several ways in which this problem can be resolved (alone or in combination): • a) for 48 hours prior to harvesting, replace growth medium with DM (above); or • b) for 48 hours prior to harvesting, replace growth medium with X-Vivo10+25 ng/mL BMP2; or • c) when passaging cells, keep initial colony sizes small and consistent, decrease initial seeding density, and harvest the culture well before confluency is reached or • d) form aggregates in the presence of 10 μM Y27632 • If cells are excessively pre-differentiated using techniques a-c, highly coherent aggregates are formed however they are then resistant to release from the wells in which they are aggregated, and their subsequent differentiation trajectory may also be affected. The precise degree of pre-differentiation that is optimal will vary with the cell line in question, exact maintenance techniques, etc. If EB coherence is still insufficient after treatment as above, pre-differentiation can be started earlier (i.e the duration increased) or (if using BMPs), BMP concentration can be increased. If highly coherent aggregates result but are not efficiently recovered from the plate in which they are formed, the duration of pre-differentiation can be reduced, or (if using BMP2) the concentration of BMP2 can be reduced. • 2. […]

## BMP2: Bone Morphogenetic Protein-2, growth factor used for pre-differentiation (R&D Systems)
  stable aggregate formation after BMP2 pre-differentiation: Aggregates formed from the pre-differentiated population

Reference: patent publication US20210355421A1, “DEVICES AND METHODS FOR PRODUCTION OF CELL AGGREGATES” (priority 2007, published 2021)
